Assay: Plasma pharmacokinetics, Food Effect Study (fed vs fasted)
Settings: DFP-11207 300 mg twice daily; for Tmax: human, plasma, oral, 300 mg, Median (Min, Max)

Row | Tmax, Median (Min, Max) (Steady state dose, Fed) | Tmax (Initial dose, Fasted) [h] | Tmax (Initial dose, Fed) [h] | Tmax (Steady state dose, Fasted) [h] | Tmax (Steady state dose, Fed) [h] | SMILES
1 | 5; 2.0 (2.0, 10) h | 10 | 10 | 6 |  | O=c1[nH]cc(F)c(=O)[nH]1 [5-FU, 5-fluorouracil, reference compound]
2 |  | 7 | 4 | 2 | 2 | Oc1cc(O)c(Cl)cn1 [CDHP, 5-chloro-2,4-dihydroxypyridine]
3 |  | 4 | 10 | 2 | 2 | O=C(O)c1cc(O)nc(O)c1 [CTA, citrazinic acid]
4 |  | 36 | 10 | 10 | 10 | CCOCn1cc(F)c(=O)[nH]c1=O [EM-FU, 1-ethoxymethyl-5-fluorouracil]

— paper PMC7575509, “Phase I study of DFP-11207, a novel oral fluoropyrimidine with reasonable AUC and low Cmax and improved tolerability, in patients with solid tumors” (Investigational New Drugs, 2020)
